The nature of experiment [1]: Minimum dose required for subcutaneous administration to improve scopolamine-induced impairment of passive avoidance task in mouse(anti-amnesic effect).
For experiment [2], the system named is Muscarinic acetylcholine receptors M1 & M2 (Rattus norvegicus). Kind of experiment: The ratio of Ki for M2 receptor to the Ki for M1 receptor was determined.

On to `CN1CCC2(CC1)OC(=O)N(C(C)(C)C)C2=O`, for which, in experiment [1], the MED is above 30 mg/kg.

The compound `CN1CCC2(CC1)OC(=S)N(c1ccccc1)C2=O` had an MED in experiment [1] above 30 mg/kg.

Take `CCN1C(=O)OC2(CCN(Cc3ccccc3)CC2)C1=O`: the MED in experiment [1] turned out to be 30 mg/kg.

Regarding `CN1CCC2(CC1)OC(=S)N(C(C)(C)C)C2=O.Cl`, the M2/M1 Index in experiment [2] is 10. Besides, the MED in experiment [1] amounted to 0.3 mg/kg.

Consider `CCN1C(=O)C2(CCN(C)CC2)OC1=S`, for which the M2/M1 Index in experiment [2] came out at 4.8. In experiment [1], this compound yielded an MED of 0.3 mg/kg.

`COC(=O)CN1C(=O)OC2(CCN(C)CC2)C1=O` yielded an MED in experiment [1] above 30 mg/kg.
